Assay [1] concerns the target BIR3 domain of XIAP (Homo sapiens (Human), UniProt P98170). The assay is described as follows: TR-FRET assay for BIR3: inhibition of binding of XIAP BIR3 domain to Peptide A (SMAC-derived peptide). The conditions noted are these: 6× His-tagged BIR3 domain (aa 241-356 of XIAP) 10 nM, Peptide A 20 nM. (In general: In TR-FRET formats the signal depends on donor and acceptor labels being close together.)

The chains behind the UniProt entries cited, without tags or fusion partners. A line that says so, or that is headed by a name, gives the form on record, which may keep a tag or linker.
UniProt P98170, other isoform, or with tags, fused parts or gaps: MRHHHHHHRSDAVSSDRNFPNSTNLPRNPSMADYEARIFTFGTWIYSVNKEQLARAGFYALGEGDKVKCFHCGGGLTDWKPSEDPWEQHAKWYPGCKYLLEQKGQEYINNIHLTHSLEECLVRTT
UniProt P98170, other isoform, or with tags, fused parts or gaps, stated change not applied: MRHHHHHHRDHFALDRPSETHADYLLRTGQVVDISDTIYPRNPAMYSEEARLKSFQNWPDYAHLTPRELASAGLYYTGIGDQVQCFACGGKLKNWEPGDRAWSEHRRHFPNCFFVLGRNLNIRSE

The target of assay [2] is BIR2 domain of XIAP (Homo sapiens (Human), UniProt P98170, C202A/C213G). The experiment in a line: TR-FRET assay for BIR2: inhibition of binding of XIAP BIR2 domain to Peptide A (SMAC-derived peptide). The following applies: 6× His-tagged BIR2 domain (aa 124-240 of XIAP) 10 nM, Peptide A 20 nM. On the procedure: TR-FRET Assay for BIR2 and BIR3
The peptides were labeled with the fluorescent tags FITC or TAMRA and Kd values were determined by fluorescence polarization assay. […] The peptide sequence was derivatized with biotin to provide […]-(ε-biotin)-OH 1:2 TFA as the substrate for the TR-FRET assay.
The XIAP protein sequence was obtained from the SWISS-PROT protein sequence database and the BIR2 and BIR3 domains were derived from that. The sequence of the BIR2 domain used for the TR-FRET assay is […].
Time-resolved fluorescence resonance energy transfer (TR-FRET) signals were measured 1 hour later at room temperature. Test compound potency was assessed at 10 serially diluted concentrations. Percentage of inhibition at each concentration was determined to generate an IC50 value for each test compound.

Where a name gives a salt, the structure may show the parent alone.

What is called IC50 is the concentration that gives 50% inhibition. A lower IC50 goes with higher potency. For the compound `CN[C@@H](C)C(=O)N[C@H]1CN(C(=O)c2cccc(C(=O)N3C[C@H](NC(=O)[C@H](C)NC)C(=O)N(Cc4c(OC)ccc5cc(Br)ccc45)c4ccccc43)c2)c2ccccc2N(Cc2c(OC)ccc3cc(Br)ccc23)C1=O` [Ex 6, (2S)-N-[(3S)-5-[(6-Bromo-2-methoxy-1-naphthyl)methyl]-1-[3-[(3S)-5-[(6-bromo-2-methoxy-1-naphthyl)methyl]-3-[[(2S)-2-(methylamino)propanoyl]amino]-4-oxo-2,3-dihydro-1,5-benzodiazepine-1-carbonyl]benzoyl]-4-oxo-2,3-dihydro-1,5-benzodiazepin-3-yl]-2-(methylamino)propanamide dihydrochloride], the results for the IC50 in assay [1] and in assay [2] were > 5480 nM and 0.899 nM, respectively.
`CN[C@@H](C)C(=O)N[C@H]1CN(C(=O)c2ccc(C(=O)N3C[C@H](NC(=O)[C@H](C)NC)C(=O)N(Cc4c(OC)ccc5ccccc45)c4ccccc43)cc2)c2ccccc2N(Cc2c(OC)ccc3ccccc23)C1=O` [Ex 25, (2S)-N-[(3S)-5-[(2-Methoxy-1-naphthyl)methyl]-1-[4-[(3S)-5-[(2-methoxy-1-naphthyl)methyl]-3-[[(2S)-2-(methylamino)propanoyl]amino]-4-oxo-2,3-dihydro-1,5-benzodiazepine-1-carbonyl]benzoyl]-4-oxo-2,3-dihydro-1,5-benzodiazepin-3-yl]-2-(methylamino)propanamide dihydrochloride]: the IC50 in assay [1] was > 5480 nM; in assay [2], 0.452 nM.

Values taken from patent US9409888B2, “Dimeric compounds” (priority 2012, dated 2016).
